Molecular target: C-X-C chemokine receptor type 4 (Homo sapiens, UniProt P61073)
Test: Antagonist activity at CXCR4 in human CEM-CCRF cells assessed as inhibition of SDF-1-induced calcium flux
Assay type: functional, cell-based

Sequences of proteins named here, by UniProt entry; tags and fusion partners are left off.
UniProt P61073, whole entry: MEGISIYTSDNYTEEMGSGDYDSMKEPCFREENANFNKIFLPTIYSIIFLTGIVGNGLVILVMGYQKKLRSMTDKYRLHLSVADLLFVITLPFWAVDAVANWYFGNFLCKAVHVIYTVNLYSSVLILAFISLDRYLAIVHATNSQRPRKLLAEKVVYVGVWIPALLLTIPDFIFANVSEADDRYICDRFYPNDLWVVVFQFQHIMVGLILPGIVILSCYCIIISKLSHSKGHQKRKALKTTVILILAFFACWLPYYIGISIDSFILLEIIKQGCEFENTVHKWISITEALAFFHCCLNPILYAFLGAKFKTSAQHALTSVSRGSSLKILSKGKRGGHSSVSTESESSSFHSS

IC50: 11 nM
SMILES: NCCCCN(Cc1nc2ccccc2[nH]1)C1CCCc2cccnc21 (stereo unspecified)

— ChEMBL document CHEMBL1156989, “Discovery of novel small molecule orally bioavailable C-X-C chemokine receptor 4 antagonists that are potent inhibitors of T-tropic (X4) HIV-1 replication” (J Med Chem, 2010)
